The entries are a selection whose mix differs from that of the whole data set. Some salts and complexes are drawn in separate pieces, as the source files them; their charges need not balance. Active and inactive are the calls of the source.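 Rule for the calls: active = maximum activity change below -70%; inconclusive = maximum activity change between -70% and -50%; inactive = maximum activity change above -50%.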
biological target: Voltage-gated inwardly rectifying potassium channel KCNH2 (Homo sapiens) (UniProt Q12809); test: qHTS for Inhibitors of KCHN2 3.1: Wildtype qHTS; details: U2OS, BacMam KCNH2, thallium flux FluxOr; at 1.84 µM; hits give low values
Text: Many antipsychotic drugs that inhibit the neurotransmitter dopamine also bind to hERG1 channel which might help explain their antipsychotic activity but also produces cardiac side effects. The discovery of the novel KCNH2 3.1 isoform offers a potential new target for the development of antipsychotic drugs without cardiac side effects. This proposal will use a high throughput thallium flux assay developed for KCNH2 to screen compounds that modulate the activity of KCNH2 3.1. The wild type KCNH2 channel will also be screened in parallel to help define the selective modulators of this KCNH2 3.1 potassium channel. The resulting compounds will be validated in electrophysiology experiments. The availability of animal models will allow future testing in vivo for effects on memory and other aspects of animal physiology linked with psychosis. NIH Chemical Genomics Center [NCGC] NIH Molecular Libraries Probe Centers Network [MLPCN] MLPCN Grant: MH096539 Assay Submitter (PI): James Barrow, Johns Hopkins University, Lieber Institute for Brain Development
U2OS cells were resuspended in cell media containing 10% fetal calf serum (FCS) at a concentration of 2 million cells / mL. The solution was treated with the Wild-type virus at 2.03 x 10^8 / mL and allowed to incubate at room temperature in the dark. After 4 hours of incubation, DMEM + 10% fetal bovine serum (FBS) was added to the cell solution. Three microliter was then dispensed into a 1536 tissue culture treated black assay plates which were incubated overnight at 37 C. Two microliter of loading buffer (HBSS + HEPES + Red40 dye quencher + FluxOr dye) was added and the assay plates were incubated for 45 min at room temperature in the dark. […] A stimulation buffer was added to the plate and the second kinetic read (2 min) was obtained. The rate constant was calculated from the kinetic reads and normalized to the positive and negative DMSO controls.
% is set by controls: 0 for no effect and ±100 for the full control effect.

Sequences of proteins named here, by UniProt entry; tags and fusion partners are left off.
UniProt Q12809, whole entry: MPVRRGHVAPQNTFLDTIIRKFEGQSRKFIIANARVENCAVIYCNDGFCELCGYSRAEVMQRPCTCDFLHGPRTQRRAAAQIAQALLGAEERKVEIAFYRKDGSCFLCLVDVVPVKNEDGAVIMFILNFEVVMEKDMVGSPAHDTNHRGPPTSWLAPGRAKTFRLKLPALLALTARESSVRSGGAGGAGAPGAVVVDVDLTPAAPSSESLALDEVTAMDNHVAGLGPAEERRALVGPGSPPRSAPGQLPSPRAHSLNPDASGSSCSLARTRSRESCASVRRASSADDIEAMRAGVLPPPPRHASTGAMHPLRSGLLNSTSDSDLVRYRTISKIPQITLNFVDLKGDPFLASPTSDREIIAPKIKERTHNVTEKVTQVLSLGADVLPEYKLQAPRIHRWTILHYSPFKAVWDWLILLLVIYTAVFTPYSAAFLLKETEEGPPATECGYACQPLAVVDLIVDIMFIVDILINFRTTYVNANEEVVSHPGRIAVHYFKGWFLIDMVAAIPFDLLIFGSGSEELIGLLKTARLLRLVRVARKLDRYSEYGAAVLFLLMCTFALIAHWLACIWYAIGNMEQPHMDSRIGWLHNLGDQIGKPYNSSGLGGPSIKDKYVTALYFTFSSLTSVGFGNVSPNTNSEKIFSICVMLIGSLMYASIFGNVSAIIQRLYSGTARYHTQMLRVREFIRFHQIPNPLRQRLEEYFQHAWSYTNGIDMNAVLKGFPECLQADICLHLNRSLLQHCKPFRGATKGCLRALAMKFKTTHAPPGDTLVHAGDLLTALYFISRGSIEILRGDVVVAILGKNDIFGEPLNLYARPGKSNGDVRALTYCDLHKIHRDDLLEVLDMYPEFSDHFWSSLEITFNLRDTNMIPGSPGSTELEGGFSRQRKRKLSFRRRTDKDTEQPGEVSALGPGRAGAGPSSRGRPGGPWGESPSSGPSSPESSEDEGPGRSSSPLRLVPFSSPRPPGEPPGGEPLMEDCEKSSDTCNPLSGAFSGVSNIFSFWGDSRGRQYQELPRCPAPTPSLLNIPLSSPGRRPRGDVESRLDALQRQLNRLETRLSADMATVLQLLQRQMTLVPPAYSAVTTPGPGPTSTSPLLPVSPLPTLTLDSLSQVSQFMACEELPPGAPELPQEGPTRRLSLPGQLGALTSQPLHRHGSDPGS

Structure (SMILES)	activity change
CCc1cc(C(=O)NCC2(N3CCCCC3)CCCCC2)sc1C	inactive: 6.45%
O=C(OC1CN2CCC1CC2)C1c2ccccc2C=Cc2ccccc21 (stereo not drawn)	inactive: 3.09%
O=C(O)c1cccc(Nc2c([N+](=O)[O-])cc([N+](=O)[O-])cc2[N+](=O)[O-])c1	inactive: -14.1%
N/C(=N\O)c1c(N)no[n+]1[O-]	inactive: -3.51%
CCOC(=O)N1CCC(Nc2ccc(C)cc2)CC1	inactive: -5.59%
COc1ccc(C(=O)NCC2(N3CCOCC3)CCCCC2)cc1OC	inactive: 4.37%
O=C(NCC1(N2CCOCC2)CCCCC1)c1cc(Br)ccc1Cl	inactive: 0.0862%
COc1cc(C(=O)NCC2(N3CCOCC3)CCCCC2)cc(OC)c1C	inactive: -4.59%
c1ccc(CN2CCC(Nc3ccccc3)CC2)cc1	inactive: 6.31%
Cc1cc(N(CCCl)CCCl)ccc1C=O	inactive: 7.86%
CCCN1CCC(Nc2cc(OC)cc(OC)c2)CC1	inactive: -21.5%
CN(C)C1(CNC(=O)c2cccc(C#N)c2)CCCCC1	inactive: 2.94%
CCOC(=O)C(CC)C1=NC(C)(C)Cc2ccccc21.O=[N+]([O-])c1cc([N+](=O)[O-])c(O)c([N+](=O)[O-])c1 (stereo not drawn)	inactive: 0.62%
CC(C)(C)OC(=O)N1CCC(N(C(=O)c2ccccc2)c2ccc(Cl)cc2)CC1	inactive: 0.597%
N#Cc1ccc(C(=O)NCC2(N3CCCCC3)CCCCC2)cc1	inactive: 39.1%
O=C(NCC1(N2CCCCC2)CCCCC1)c1ccco1	inactive: -5.73%
CN(C)c1ccc(C(=O)NCC2(N3CCCCC3)CCCCC2)cc1	inactive: 50.2%
Cn1c(=O)[nH]cc(N(CCCl)CCCl)c1=O	inactive: -13.1%
Cc1ccccc1NC1(C#N)CCN(Cc2ccccc2)CC1	inactive: -2.46%
CCN1CCC(Nc2cccc(F)c2)CC1	inactive: -0.425%
Cc1ccc(NC2(C#N)CCN(Cc3ccccc3)CC2)cc1	inactive: 2.67%

Structure (SMILES)	activity change
Cc1ccc(C(=O)NCC2(N3CCCCC3)CCCCC2)o1	inactive: 32.1%
Fc1ccccc1NC1CCN(Cc2ccccc2)CC1	inactive: 3.29%
Cc1ccc(Nc2c([N+](=O)[O-])cc([N+](=O)[O-])cc2[N+](=O)[O-])cc1	inactive: 6.98%
COc1cc(OC)cc(C(=O)NCC2(N3CCCCC3)CCCCC2)c1	inactive: 43.9%
CC(=O)N(c1ccccc1)C1CCNCC1	inactive: -7.1%
CN1CCC(Nc2ccc(Cl)cc2)CC1	inactive: 20.3%
CCC(CO)(C(=O)OC1CN2CCC1CC2)c1ccccc1 (stereo not drawn)	inactive: 10.2%
COc1cc(OC)cc(C(=O)NCC2(N3CCOCC3)CCCCC2)c1	inactive: -3.74%
COc1cccc(C(=O)N(c2cc(C)cc(C)c2)C2CCN(C(=O)OC(C)(C)C)CC2)c1	inactive: -5.04%
CCCOc1ccc(C(=O)NCC2(N(C)C)CCCCC2)cc1	inactive: 55.3%
CC(C)(C)OC(=O)N1CCC(Nc2ccccc2)CC1	inactive: -3.64%
O=C(O)C1(Nc2ccccc2)CCN(Cc2ccccc2)CC1	inactive: 4.09%
CCOc1ncccc1C(=O)NCC1(N2CCOCC2)CCCCC1	inactive: 5.36%
CN1CCC(Nc2ccc(F)c(Cl)c2)CC1	inactive: -0.734%
N#CC1(Nc2ccccc2)CCN(Cc2ccccc2)CC1	inactive: 3.81%
O=C(NCC1(N2CCCCC2)CCCCC1)c1ccc(Cl)s1	inactive: 44.6%
O=C(OC1CN2CCC1CC2)C1c2ccccc2Oc2ccccc21 (stereo not drawn)	inactive: 1.74%
COc1ccc(Cl)cc1C(=O)NCC1(N2CCOCC2)CCCCC1	inactive: 6.43%
O=C1C(O)=C([N+](=O)[O-])C(=O)C(O)=C1[N+](=O)[O-]	inactive: 3.35%
O=C(NCC1(N2CCOCC2)CCCCC1)c1cc2ccccc2o1	inactive: 5.75%
O=C(NCC1(N2CCCCC2)CCCCC1)c1ccc(Cl)nc1	inactive: 6.09%

Structure (SMILES)	activity change
Cc1cc(C)cc(N(C(=O)c2ccccc2)C2CCN(C(=O)OC(C)(C)C)CC2)c1	inactive: -1.17%
CSc1ccccc1C(=O)NCC1(N2CCCCC2)CCCCC1	inactive: 1.05%
Cc1cccc(NC2(C#N)CCN(Cc3ccccc3)CC2)c1	inactive: -3.15%
O=C(NCC1(N2CCCCC2)CCCCC1)c1ccc(=O)[nH]c1	inactive: -0.0484%
O=C(NCC1(N2CCCCC2)CCCCC1)c1cccs1	inactive: 17.8%
COc1ccc(C(=O)NCC2(N3CCCCC3)CCCCC2)cc1	inactive: 4.17%
CC(C)(C)OC(=O)N1CCC(N(C(=O)c2ccccc2)c2ccc(F)cc2)CC1	inactive: 3.79%
COc1ccc(C(=O)NCC2(N3CCCCC3)CCCCC2)c(OC)c1OC	inactive: 16.5%
CCOC(=O)N1CCC(Nc2cccc(C)c2)CC1	inactive: -4.4%
COc1cc(C(=O)NCC2(N(C)C)CCCCC2)ccc1OC(F)F	inactive: -4.59%
O=P1(N(CCCl)CCCl)SCCCS1	inactive: -3.38%
CCCCOc1ccc(C(=O)NCC2(N3CCOCC3)CCCCC2)cc1	inactive: 48.4%
O=C(NCC1(N2CCCCC2)CCCCC1)c1ccc(F)cc1	inactive: 6.58%
COc1ccc(NC2CCN(CCc3ccccc3)CC2)c(OC)c1	inactive: 36.5%
CCOC(=O)N1CCC(Nc2ccc(F)cc2)CC1	inactive: 2.9%
CCOc1ccc(C)cc1CN(CCCl)CCCl	inactive: 3.11%
O=C1CCN(Cc2ccccc2)CC1	inactive: 0.162%
CN1CCN(CCOC(=O)C(O)(c2ccccc2)c2ccccc2)CC1	inactive: -9.74%
CC(C)c1ccc(C(=O)NCC2(N3CCOCC3)CCCCC2)cc1	inactive: 13.4%
COc1ccc(NC2CCN(C(=O)OC(C)(C)C)CC2)cc1	inactive: 5.22%
COc1cc(C(=O)NCC2(N3CCCCC3)CCCCC2)ccc1OC(F)F	inactive: 12.9%

Structure (SMILES)	activity change
O=C(NCC1(N2CCOCC2)CCCCC1)c1cc(=O)[nH]c2ccccc12	inactive: 8.03%
O=C(NCC1(N2CCCCC2)CCCCC1)c1cccc(C(F)(F)F)c1	inactive: 10.9%
O=[N+]([O-])c1cc([N+](=O)[O-])c(NCC2CCS(=O)(=O)C2)c([N+](=O)[O-])c1 (stereo not drawn)	inactive: 8.64%
CSc1ccc(C(=O)NCC2(N3CCOCC3)CCCCC2)cc1	inactive: 14.8%
O=C(NCC1(N2CCCCC2)CCCCC1)c1cccc([N+](=O)[O-])c1	inactive: 31.7%
CCN1CCC(Nc2ccc(Cl)cc2)CC1	inactive: 12.8%
N#CC1(Nc2ccccc2)CCN(CCc2ccccc2)CC1	inactive: -11.2%
Cc1ccc(C(=O)NCC2(N(C)C)CCCCC2)o1	inactive: 8.68%
CCCOc1ccc(C(=O)NCC2(N(C)C)CCCCC2)cc1OC	inactive: -11.6%
O=[N+]([O-])c1cc([N+](=O)[O-])c(Nc2ccc(Cl)cc2)c([N+](=O)[O-])c1	inactive: -2.25%
CN1CCC(Nc2cccc(F)c2)CC1	inactive: 7.78%
COc1ccc2c(c1O)-c1c(O)c(OC)cc3c1[C@H](C2)[N+](C)(C)CC3.O=[N+]([O-])c1cc([N+](=O)[O-])c([O-])c([N+](=O)[O-])c1[O-]	inactive: 3.86%
O=C(NCC1(N2CCCCC2)CCCCC1)c1cncc(Br)c1	inactive: -19.2%
O=C(OC1CN2CCC1CC2)c1ccc([N+](=O)[O-])cc1 (stereo not drawn)	inactive: 16.2%
COc1cc(OC)c(C(=O)NCC2(N(C)C)CCCCC2)cc1OC	inactive: -9.36%
O=C(NCC1(N2CCOCC2)CCCCC1)c1cc(F)c(F)cc1Cl	inactive: 0.474%
COc1ccc(CN(CCCl)CCCl)cc1Cl	inactive: -13.2%
O=[N+]([O-])c1cc([N+](=O)[O-])c(OC2CCCCC2O)c([N+](=O)[O-])c1 (stereo not drawn)	inactive: -7.12%
CN(C)c1cccc(C(=O)NCC2(N3CCCCC3)CCCCC2)c1	inactive: 3.88%
CC(C)c1ccc(NC2CCN(C(=O)OC(C)(C)C)CC2)cc1	inactive: -11.9%

Source: PubChem BioAssay AID720551 (National Center for Advancing Translational Sciences (NCATS), 2013)
